The values that follow are results of earlier work, collected in PMC3152630 (Pharmaceutical research, 2011).

The conditions of this data set: previous studies using microneedles; ref [21],[25]; cited from earlier work.

Turning to Insulin, the “plasma insulin delivered using microneedles” value is 0.2 to 1.2 ng/mL.
